Measurements: patent US20260384438A1, “PYRROLOPYRIMIDINE CARBOXAMIDES” (published 2026)

Chains of the proteins cited; added tags and fusions are not shown. Residues count along the entry.
UniProt Q9UHD2, whole entry: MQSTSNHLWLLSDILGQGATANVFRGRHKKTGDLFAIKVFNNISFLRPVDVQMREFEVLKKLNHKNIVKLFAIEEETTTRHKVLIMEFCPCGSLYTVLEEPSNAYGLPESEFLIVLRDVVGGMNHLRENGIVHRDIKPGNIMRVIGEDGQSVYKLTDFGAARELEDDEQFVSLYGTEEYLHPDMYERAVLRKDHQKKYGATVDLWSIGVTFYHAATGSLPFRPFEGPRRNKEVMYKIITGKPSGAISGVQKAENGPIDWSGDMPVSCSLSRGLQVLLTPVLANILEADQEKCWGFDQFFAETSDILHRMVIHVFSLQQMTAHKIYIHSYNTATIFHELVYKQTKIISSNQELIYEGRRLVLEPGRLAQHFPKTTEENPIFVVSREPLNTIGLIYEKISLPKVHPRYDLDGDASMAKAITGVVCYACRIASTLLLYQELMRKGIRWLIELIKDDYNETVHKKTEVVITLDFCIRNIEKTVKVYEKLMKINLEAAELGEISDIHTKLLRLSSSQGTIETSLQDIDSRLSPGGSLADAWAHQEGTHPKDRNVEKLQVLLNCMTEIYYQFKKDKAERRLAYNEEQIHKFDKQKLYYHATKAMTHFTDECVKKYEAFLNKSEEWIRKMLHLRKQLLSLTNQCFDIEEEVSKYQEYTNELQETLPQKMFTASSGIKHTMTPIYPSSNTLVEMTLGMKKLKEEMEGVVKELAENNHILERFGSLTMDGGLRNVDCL
UniProt Q07002, whole entry: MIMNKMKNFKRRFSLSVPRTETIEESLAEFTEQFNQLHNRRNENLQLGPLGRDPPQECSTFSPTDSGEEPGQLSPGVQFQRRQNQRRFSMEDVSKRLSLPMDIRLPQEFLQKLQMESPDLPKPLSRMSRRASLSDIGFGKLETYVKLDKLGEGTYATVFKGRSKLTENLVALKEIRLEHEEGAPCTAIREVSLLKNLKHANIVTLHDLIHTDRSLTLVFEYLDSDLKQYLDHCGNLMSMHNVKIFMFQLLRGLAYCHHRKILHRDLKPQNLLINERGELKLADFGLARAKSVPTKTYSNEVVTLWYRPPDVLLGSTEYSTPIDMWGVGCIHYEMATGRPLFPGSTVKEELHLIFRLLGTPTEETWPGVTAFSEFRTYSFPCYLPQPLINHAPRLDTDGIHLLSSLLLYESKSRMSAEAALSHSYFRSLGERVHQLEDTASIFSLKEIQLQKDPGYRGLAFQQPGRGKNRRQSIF
UniProt P29317, 24-976 limits assumed: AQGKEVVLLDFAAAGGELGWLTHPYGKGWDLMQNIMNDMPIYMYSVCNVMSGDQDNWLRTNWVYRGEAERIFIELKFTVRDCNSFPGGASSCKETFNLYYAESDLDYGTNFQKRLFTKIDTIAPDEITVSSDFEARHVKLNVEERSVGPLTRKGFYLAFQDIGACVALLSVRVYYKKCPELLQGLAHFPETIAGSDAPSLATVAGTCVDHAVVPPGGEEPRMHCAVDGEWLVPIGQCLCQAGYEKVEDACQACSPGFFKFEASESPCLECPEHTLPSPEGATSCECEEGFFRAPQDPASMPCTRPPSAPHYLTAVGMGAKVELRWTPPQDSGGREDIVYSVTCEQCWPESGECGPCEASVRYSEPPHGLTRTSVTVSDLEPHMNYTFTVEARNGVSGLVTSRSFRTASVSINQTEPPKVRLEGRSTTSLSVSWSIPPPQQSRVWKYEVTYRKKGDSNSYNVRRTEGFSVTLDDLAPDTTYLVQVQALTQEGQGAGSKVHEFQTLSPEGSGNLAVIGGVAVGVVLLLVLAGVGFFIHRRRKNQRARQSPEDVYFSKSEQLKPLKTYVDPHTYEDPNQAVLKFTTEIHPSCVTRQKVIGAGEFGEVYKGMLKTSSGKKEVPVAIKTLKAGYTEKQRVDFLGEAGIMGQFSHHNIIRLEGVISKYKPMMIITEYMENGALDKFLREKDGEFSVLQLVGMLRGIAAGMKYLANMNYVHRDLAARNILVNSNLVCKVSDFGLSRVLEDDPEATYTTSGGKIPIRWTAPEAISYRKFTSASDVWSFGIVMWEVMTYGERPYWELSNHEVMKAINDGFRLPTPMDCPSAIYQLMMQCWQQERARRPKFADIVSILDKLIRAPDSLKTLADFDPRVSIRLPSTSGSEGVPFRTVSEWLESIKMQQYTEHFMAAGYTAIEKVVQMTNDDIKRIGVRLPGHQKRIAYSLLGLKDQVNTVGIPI
UniProt Q8TDC3, whole entry: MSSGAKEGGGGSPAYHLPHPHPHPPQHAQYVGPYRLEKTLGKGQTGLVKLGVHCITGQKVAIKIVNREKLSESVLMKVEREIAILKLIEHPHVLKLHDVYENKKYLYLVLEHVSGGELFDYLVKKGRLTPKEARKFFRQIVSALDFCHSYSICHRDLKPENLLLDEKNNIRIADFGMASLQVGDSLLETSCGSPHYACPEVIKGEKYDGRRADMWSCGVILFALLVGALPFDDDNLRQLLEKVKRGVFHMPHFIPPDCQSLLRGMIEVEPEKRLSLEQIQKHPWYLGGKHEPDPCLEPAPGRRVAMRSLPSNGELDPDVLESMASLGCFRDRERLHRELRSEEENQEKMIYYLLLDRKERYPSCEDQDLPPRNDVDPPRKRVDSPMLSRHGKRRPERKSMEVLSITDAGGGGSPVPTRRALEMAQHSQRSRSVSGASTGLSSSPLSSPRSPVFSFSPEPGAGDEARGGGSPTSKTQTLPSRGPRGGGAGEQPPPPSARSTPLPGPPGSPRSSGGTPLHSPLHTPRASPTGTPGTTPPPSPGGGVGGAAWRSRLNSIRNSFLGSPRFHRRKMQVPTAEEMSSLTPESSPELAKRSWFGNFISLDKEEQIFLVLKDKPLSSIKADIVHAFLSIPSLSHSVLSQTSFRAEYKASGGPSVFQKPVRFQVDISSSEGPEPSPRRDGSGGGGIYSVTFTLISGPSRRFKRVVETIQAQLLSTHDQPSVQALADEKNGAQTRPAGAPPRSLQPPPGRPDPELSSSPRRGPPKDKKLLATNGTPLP
UniProt Q13153, whole entry: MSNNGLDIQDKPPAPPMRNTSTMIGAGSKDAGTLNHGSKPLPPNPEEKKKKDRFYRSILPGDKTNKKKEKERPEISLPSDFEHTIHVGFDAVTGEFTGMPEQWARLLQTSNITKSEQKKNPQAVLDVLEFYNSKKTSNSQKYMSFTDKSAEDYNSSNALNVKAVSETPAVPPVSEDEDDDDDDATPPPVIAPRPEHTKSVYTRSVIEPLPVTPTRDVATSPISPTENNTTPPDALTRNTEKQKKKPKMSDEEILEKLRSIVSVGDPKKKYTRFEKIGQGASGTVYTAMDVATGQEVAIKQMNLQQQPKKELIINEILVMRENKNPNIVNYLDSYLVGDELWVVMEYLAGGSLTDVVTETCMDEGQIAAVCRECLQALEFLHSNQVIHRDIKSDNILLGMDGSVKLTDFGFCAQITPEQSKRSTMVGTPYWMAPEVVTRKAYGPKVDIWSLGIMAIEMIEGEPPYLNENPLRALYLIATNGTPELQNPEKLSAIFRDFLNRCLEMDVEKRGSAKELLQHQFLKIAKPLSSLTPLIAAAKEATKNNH
UniProt P31751, whole entry: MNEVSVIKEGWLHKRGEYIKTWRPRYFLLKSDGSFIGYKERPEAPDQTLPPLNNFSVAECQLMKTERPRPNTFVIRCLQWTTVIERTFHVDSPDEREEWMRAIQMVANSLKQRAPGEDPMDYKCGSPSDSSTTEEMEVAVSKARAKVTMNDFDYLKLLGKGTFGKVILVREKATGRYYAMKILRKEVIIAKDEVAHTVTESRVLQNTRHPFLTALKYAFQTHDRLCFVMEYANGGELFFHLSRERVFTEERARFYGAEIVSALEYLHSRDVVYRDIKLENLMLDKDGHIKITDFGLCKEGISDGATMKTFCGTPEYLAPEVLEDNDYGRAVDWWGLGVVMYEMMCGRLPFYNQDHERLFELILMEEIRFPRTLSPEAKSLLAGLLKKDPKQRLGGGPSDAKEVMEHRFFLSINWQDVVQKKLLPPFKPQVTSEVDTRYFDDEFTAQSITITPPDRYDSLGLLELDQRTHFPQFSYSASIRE
UniProt Q9HCP0, whole entry: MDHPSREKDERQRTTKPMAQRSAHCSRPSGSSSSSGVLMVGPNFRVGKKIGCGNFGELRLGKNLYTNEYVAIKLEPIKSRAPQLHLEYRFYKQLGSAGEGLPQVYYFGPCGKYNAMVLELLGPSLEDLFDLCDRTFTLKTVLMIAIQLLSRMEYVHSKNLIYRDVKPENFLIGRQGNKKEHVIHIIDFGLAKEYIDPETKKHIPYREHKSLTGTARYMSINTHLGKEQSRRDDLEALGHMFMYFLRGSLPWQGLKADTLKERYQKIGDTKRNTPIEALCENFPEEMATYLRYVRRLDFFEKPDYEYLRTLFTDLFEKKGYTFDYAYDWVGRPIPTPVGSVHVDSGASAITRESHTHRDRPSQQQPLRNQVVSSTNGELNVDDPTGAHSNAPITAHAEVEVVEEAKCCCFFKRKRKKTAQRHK
UniProt P51817, whole entry: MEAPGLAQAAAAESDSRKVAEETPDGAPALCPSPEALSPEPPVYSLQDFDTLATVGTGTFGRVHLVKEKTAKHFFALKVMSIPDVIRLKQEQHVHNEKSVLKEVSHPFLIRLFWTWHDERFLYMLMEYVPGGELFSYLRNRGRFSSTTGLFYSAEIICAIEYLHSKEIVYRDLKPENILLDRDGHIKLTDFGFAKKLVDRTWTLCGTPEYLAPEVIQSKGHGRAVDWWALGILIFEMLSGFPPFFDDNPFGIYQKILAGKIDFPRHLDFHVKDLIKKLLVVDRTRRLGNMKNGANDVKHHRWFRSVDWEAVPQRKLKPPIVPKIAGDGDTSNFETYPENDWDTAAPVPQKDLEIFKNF
UniProt P08631, whole entry: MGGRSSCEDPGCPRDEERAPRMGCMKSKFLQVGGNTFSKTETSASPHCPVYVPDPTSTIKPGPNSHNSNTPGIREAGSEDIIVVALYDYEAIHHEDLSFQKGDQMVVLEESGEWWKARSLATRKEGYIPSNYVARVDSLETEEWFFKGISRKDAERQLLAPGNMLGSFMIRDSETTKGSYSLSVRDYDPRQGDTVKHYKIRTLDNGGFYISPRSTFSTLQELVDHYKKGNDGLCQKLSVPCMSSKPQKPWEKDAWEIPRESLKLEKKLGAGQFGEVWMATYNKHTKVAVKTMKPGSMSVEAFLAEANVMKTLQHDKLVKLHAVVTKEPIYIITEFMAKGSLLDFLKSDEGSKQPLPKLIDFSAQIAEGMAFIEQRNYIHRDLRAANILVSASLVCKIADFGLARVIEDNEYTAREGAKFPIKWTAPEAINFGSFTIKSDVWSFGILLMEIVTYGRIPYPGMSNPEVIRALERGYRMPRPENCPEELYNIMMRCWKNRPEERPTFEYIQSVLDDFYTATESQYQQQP
UniProt Q9Y463, whole entry: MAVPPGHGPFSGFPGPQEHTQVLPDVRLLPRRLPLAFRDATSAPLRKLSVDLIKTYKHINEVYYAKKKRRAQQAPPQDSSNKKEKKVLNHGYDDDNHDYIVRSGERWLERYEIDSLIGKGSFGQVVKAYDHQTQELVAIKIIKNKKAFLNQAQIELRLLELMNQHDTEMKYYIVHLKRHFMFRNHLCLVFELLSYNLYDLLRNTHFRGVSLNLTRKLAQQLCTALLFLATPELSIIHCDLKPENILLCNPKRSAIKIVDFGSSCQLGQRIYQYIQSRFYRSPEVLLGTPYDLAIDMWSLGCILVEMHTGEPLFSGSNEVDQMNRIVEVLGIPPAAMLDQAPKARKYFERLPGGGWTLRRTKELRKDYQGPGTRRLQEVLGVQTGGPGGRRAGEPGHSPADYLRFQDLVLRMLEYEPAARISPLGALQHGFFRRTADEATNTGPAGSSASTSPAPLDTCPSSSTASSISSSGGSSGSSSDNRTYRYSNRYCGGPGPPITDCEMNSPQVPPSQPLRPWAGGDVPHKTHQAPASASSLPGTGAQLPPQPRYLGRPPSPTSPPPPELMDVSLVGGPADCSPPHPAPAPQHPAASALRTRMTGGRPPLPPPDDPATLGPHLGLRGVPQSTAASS
UniProt O96013, whole entry: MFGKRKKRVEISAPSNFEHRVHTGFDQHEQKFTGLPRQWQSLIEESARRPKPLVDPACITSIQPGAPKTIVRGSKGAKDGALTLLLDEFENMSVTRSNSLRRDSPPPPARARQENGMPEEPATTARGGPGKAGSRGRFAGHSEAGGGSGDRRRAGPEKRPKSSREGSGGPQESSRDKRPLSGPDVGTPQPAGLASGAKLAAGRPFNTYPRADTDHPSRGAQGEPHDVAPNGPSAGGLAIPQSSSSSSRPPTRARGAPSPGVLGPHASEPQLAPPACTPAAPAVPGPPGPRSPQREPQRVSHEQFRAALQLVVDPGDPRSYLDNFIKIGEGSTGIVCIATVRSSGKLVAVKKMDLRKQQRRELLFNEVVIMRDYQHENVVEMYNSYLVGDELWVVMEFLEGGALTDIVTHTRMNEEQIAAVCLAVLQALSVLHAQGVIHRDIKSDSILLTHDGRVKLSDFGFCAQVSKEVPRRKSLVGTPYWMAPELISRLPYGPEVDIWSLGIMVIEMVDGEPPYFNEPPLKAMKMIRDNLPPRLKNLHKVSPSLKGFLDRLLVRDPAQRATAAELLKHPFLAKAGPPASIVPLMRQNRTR

Legend:
Assay in all cases: Kinase profiling, Z-Lyte
[1] = molecular target: MAPK13 (p38 delta) (Homo sapiens, UniProt O15264); conditions: 1 μM, KmATP
[2] = molecular target: CSNK2A1 (CK2alpha1) (Homo sapiens, UniProt P68400); conditions: 1 μM, KmATP
[3] = molecular target: PTK2 (FAK) (Homo sapiens, UniProt Q05397); conditions: 1 μM, KmATP
[4] = molecular target: CDK5/p35 (Homo sapiens, UniProt Q00535); conditions: 1 μM, KmATP
[5] = molecular target: GSK3B (Homo sapiens, UniProt P49841)
[6] = molecular target: TBK1 (Homo sapiens, UniProt Q9UHD2); conditions: 1 μM, KmATP
[7] = molecular target: CDK18/cyclin Y (Homo sapiens, UniProt Q07002); conditions: 1 μM, KmATP
[8] = molecular target: CSNK1D (CK1 delta) (Homo sapiens, UniProt P48730); conditions: 1 μM, KmATP
[9] = molecular target: DYRK4 (Homo sapiens, UniProt Q9NR20); conditions: 1 μM, KmATP
[10] = molecular target: MYLK2 (Homo sapiens, UniProt Q9H1R3); conditions: 1 μM, KmATP
[11] = molecular target: AMPK A1/B2/G2 (Homo sapiens, UniProt Q13131); conditions: 1 μM, KmATP
[12] = molecular target: MAP3K19 (YSK4) (Homo sapiens, UniProt Q56UN5); conditions: 1 μM, KmATP
[13] = molecular target: CAMK2A (Homo sapiens, UniProt Q9UQM7); conditions: 1 μM, KmATP
[14] = molecular target: EPHA8 (Homo sapiens, UniProt P29322)
[15] = molecular target: EPHA2 (Homo sapiens, UniProt P29317)
[16] = molecular target: BRSK1 (SAD1) (Homo sapiens, UniProt Q8TDC3); conditions: 1 μM, KmATP
[17] = molecular target: PAK1 (Homo sapiens, UniProt Q13153); conditions: 1 μM, KmATP
[18] = molecular target: EPHA5 (Homo sapiens, UniProt P54756); conditions: 1 μM, KmATP
[19] = molecular target: FES (FPS) (Homo sapiens, UniProt P07332); conditions: 1 μM, KmATP
[20] = molecular target: EPHB1 (Homo sapiens, UniProt P54762)
[21] = molecular target: RPS6KA5 (MSK1) (Homo sapiens, UniProt O75582); conditions: 1 μM, KmATP
[22] = molecular target: PRKCB1 (PKC beta I) (Homo sapiens, UniProt P05771); conditions: 1 μM, KmATP
[23] = molecular target: MINK1 (Homo sapiens, UniProt Q8N4C8); conditions: 1 μM, KmATP
[24] = molecular target: AKT2 (PKB beta) (Homo sapiens, UniProt P31751); conditions: 1 μM, KmATP
[25] = molecular target: CSNK1G1 (CK1gamma1) (Homo sapiens, UniProt Q9HCP0); conditions: 1 μM, KmATP
[26] = molecular target: CDC42BPG (Homo sapiens, UniProt Q6DT37); conditions: 1 μM, KmATP
[27] = molecular target: PRKX (Homo sapiens, UniProt P51817); conditions: 1 μM, KmATP
[28] = molecular target: HCK (Homo sapiens, UniProt P08631); conditions: 1 μM, KmATP
[29] = molecular target: PRKD1 (PKC mu) (Homo sapiens, UniProt Q15139); conditions: 1 μM, KmATP
[30] = molecular target: RET Hu Phos (Homo sapiens, UniProt P07949); conditions: 1 μM, KmATP
[31] = molecular target: DYRK3 (Homo sapiens, UniProt O43781); conditions: 1 μM, KmATP
[32] = molecular target: MARK1 (MARK) (Homo sapiens, UniProt Q9P0L2); conditions: 1 μM, KmATP
[33] = molecular target: GSK3A (Homo sapiens, UniProt P49840); conditions: 1 μM, KmATP
[34] = molecular target: AMPK A2/B1/G2 (Homo sapiens, UniProt P54646); conditions: 1 μM, KmATP
[35] = molecular target: DYRK1B (Homo sapiens, UniProt Q9Y463)
[36] = molecular target: MET (cMet) (Homo sapiens, UniProt P08581); conditions: 1 μM, KmATP
[37] = molecular target: KDR (VEGFR2) (Homo sapiens, UniProt P35968); conditions: 1 μM, KmATP
[38] = molecular target: GRK4 (Homo sapiens, UniProt P32298); conditions: 1 μM, KmATP
[39] = molecular target: PAK4 (Homo sapiens, UniProt O96013); conditions: 1 μM, KmATP

Cc1nc(C(F)(F)F)c2c(C(N)=O)c(N)n(-c3c(C)ccc(O)c3C)c2n1 (single isomer, unassigned)
MEAN INHIBITION [1]: 3.793%
MEAN INHIBITION [2]: 1.840%
MEAN INHIBITION [3]: 2.177%
MEAN INHIBITION [4]: 6.213%
MEAN INHIBITION ([5]; 1 μM, KmATP): 46.076%
IC50 ([5]; 10-point CR, ATP 10.000 μM): 635 nM
MEAN INHIBITION [6]: 1.328%
MEAN INHIBITION [7]: 5.763%
MEAN INHIBITION [8]: 1.788%
MEAN INHIBITION [9]: 0.423%
MEAN INHIBITION [10]: 0.373%
MEAN INHIBITION [11]: 21.257%
MEAN INHIBITION [12]: 1.798%
MEAN INHIBITION [13]: 2.396%
MEAN INHIBITION ([14]; 1 μM, KmATP): 35.008%
IC50 ([14]; 10-point CR, ATP 100.000 μM): 1170 nM
MEAN INHIBITION ([15]; 1 μM, KmATP): 59.273%
IC50 ([15]; 10-point CR, ATP 75.000 μM): 451 nM
MEAN INHIBITION [16]: 0.568%
MEAN INHIBITION [17]: 4.877%
MEAN INHIBITION [18]: 44.210%
MEAN INHIBITION [19]: 1.521%
MEAN INHIBITION ([20]; 1 μM, KmATP): 63.359%
IC50 ([20]; 10-point CR, ATP 50.000 μM): 361 nM
MEAN INHIBITION [21]: 8.353%
MEAN INHIBITION [22]: 0.364%
MEAN INHIBITION [23]: 9.318%
MEAN INHIBITION [24]: 2.960%
MEAN INHIBITION [25]: −2.320%
MEAN INHIBITION [26]: 1.141%
MEAN INHIBITION [27]: 1.119%
MEAN INHIBITION [28]: 48.744%
MEAN INHIBITION [29]: 3.764%
MEAN INHIBITION [30]: 13.595%
MEAN INHIBITION [31]: 0.554%
MEAN INHIBITION [32]: 6.666%
MEAN INHIBITION [33]: 25.607%
MEAN INHIBITION [34]: 13.352%
MEAN INHIBITION ([35]; 1 μM, KmATP): 54.239%
IC50 ([35]; 10-point CR, ATP 75.000 μM): 614 nM
MEAN INHIBITION [36]: −1.374%
MEAN INHIBITION [37]: 1.359%
MEAN INHIBITION [38]: 3.928%
MEAN INHIBITION [39]: −12.759%
